Literature values, collected in patent publication US7517693B2, “Method and apparatus for determining a molecular descriptor of absorption for a candidate compound” (North Carolina State University, priority 2002, dated 2009).

Legend:
[1] = Table IV study compounds
[2] = Table III calibration compounds, known literature descriptor

SMILES	logKo/w [1]	logL^16 (solute gas-hexadecane partition coefficient) ([2]; 25° C.)	α (effective solute H-bond acidity) [2]	β (effective solute H-bond basicity) [2]	π (effective solute dipolarity and polarizability) [2]
c1ccc2ccccc2c1 [Naphthalene]	3.30	–	–	–	–
c1ccccc1 [Benzene]	2.13	–	–	–	–
CCCCOCCCC [Di-n-butyether]	–	3.924	0.00	0.45	0.25
